ChEMBL document CHEMBL3585306, “Anti-HIV diarylpyrimidine-quinolone hybrids and their mode of action” (Bioorg Med Chem, 2015)

Tests used:
[1] = target: Human immunodeficiency virus type 1 reverse transcriptase (Human immunodeficiency virus 1, UniProt Q72547); assay: Inhibition of wild-type HIV1 Reverse transcriptase p66/p51 assessed as relative fluorescence signal after 40 mins
[2] = Selectivity index, ratio of CC50 for mock-infected human MT4 cells to EC50 for HIV1 3B infected in human MT4 cells; type: toxicity, cell-based; settings: mock-infected (CC50) and HIV1 3B infected (EC50)

## Cc1cc(C#N)cc(C)c1Oc1nc(Nc2ccc(C#N)cc2)nc(N)c1Br [ETRAVIRINE]
[1]
  IC50: 0.011 µM
[2]
  selectivity ratio: 7500
